According to US6689803B2, “Compositions and methods for treating surgical adhesions” (Angiotech Pharmaceuticals, Inc., priority 1996, dated 2004):

System: chick chorioallantoic membrane (CAM) vasculature
Experiment: Chick chorioallantoic membrane (CAM) assay
Details: PCL paste, concentrations exceeding 2%

## CC[C@]1(O)C[C@@H]2CN(CCc3c([nH]c4ccccc34)[C@@](C(=O)OC)(c3cc4c(cc3OC)N(C)[C@H]3[C@@](O)(C(=O)OC)[C@H](OC(C)=O)[C@]5(CC)C=CCN6CC[C@]43[C@@H]65)C2)C1
  toxicity to the embryo: toxic to the embryo
